Sequences of proteins named here, by UniProt entry; tags and fusion partners are left off.
ATP-dependent Clp protease proteolytic subunit (Bacillus subtilis (strain 168)), P80244, UniProt P80244, whole entry, looked up: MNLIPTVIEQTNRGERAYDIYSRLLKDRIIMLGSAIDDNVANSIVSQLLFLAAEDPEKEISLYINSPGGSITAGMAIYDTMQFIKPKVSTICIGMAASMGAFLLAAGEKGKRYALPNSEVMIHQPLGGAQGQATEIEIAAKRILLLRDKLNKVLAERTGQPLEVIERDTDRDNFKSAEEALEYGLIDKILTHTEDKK

# High-throughput results (PubChem)
# This is a sample that favours compounds with a hit; in the whole collection about 2.5% have one here.
# ClpP mod: qHTS Assay for Activators of ClpP; AID 651965, 2013; purified B. subtilis ClpP, FRET peptide cleavage, 20 min; 1.9% of 340,000 active; Potency, µM (highest dose often 57.5 µM), for the others: top-dose activity change, negative = active; ATP-dependent Clp protease proteolytic subunit (Bacillus subtilis (strain 168)), P80244; active = well fitted falling curve with a large enough effect; inconclusive = small, poorly fitted or top-dose-only effect; inactive = no such curve, though single readings can be large or run the other way; also: potency is read from the fitted curve at half-maximal effect; the source files actives as falling curves though it sought activators and does not explain the sign; nearly all actives have a fitted effect of over 65% in size
#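 Purified B. subtilis ClpP, 10 microg/mL final in Tris/HCl pH8 with KCl, BSA, glycerol and Tween-20, cleaved an Abz/nitrotyrosine-quenched decapeptide. Fluorescence (ex 320, em 430) was read at 0 and 20 min at room temperature. Delta was normalized to 5.8 microM ADEP and DMSO/no-enzyme controls.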
# TrxR1 substrate: is turned over as a substrate by rat TrxR1; Potency, µM (series often up to 114 µM), inactives show top-dose activity change, negative = substrate turnover; purified TrxR1 substrate turnover, NADPH consumption readout; O89049; 0.01% of 390,000 active; also: potency is read from the fitted curve at half-maximal effect; % is scaled to controls: 0 for no effect and ±100 for the full control effect; nearly all actives have a fitted effect of over 50% in size
#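 Rat TrxR1, dispensed at 90 nM, was prereduced with 400 uM NADPH (final) for 5 min at ~22 deg C, then incubated with compound 15 min before 400 uM selenite. A first-read NADPH fluorescence drop versus no-compound background flagged substrates.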
# TrxR1 inh: rat TrxR1 inhibition | recombinant rTrxR1, NADPH fluorescence consumption, selenite substrate | O89049 | Potency, µM (doses to about 114 µM), for inactives: at the highest dose activity change, negative = inhibition, hits mostly inhibitors | AID 588453 | 1% of 390,000 active; also: potency is read from the fitted curve at half-maximal effect; % is scaled to controls: 0 for no effect and ±100 for the full control effect; nearly all actives have a fitted effect of over 65% in size
#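 Rat TrxR1 (90 nM in the dispensed reagent) was pre-reduced with 400 uM NADPH for 5 min at room temperature, then incubated with compound for 15 min. After 400 uM selenite was added, NADPH fluorescence (Ex 340/Em 450 nm) was followed for 8 min.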
# miR-21 FLuc: raises the signal of a miR-21 reporter; HeLa miR-21 FLuc reporter, luciferase, 48 h; Potency, µM (highest dose often 38.3 µM), for inactives: at the highest dose reporter change, positive = more light; 340,000 tested, under 10 active; active = well fitted rising curve with a large enough effect; inconclusive = small, poorly fitted or top-dose-only effect; inactive = no such curve, though single readings can be large or run the other way;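 also: % of control where 0% means no effect; miR-21 action dims this reporter so a rising signal means less miR-21 action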
#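 Compounds were titrated across several concentrations (up to approximately 40 uM) and incubated 48 hours with HeLa miR-21-FLuc reporter cells (miR-21 target sequence downstream of FLuc, endogenous miR-21). Readout was firefly luciferase luminescence after lytic detection reagent.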
# Apoferritin bind: binds horse apoferritin like a general anesthetic; apoferritin/1-aminoanthracene competitive binding, fluorescence; Potency, µM (titrated, usually from 77.5 µM), for the others: at the highest dose activity change, negative = displacement, actives largely listed as inhibitors; 0.074% of 350,000 active; AID 485281; also: potency is read from the fitted curve at half-maximal effect; % is scaled to controls: 0 for no effect and ±100 for the full control effect; nearly all actives have a fitted effect of over 20% in size
#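 In PBS, apoferritin at 10 uM is loaded with 1-AMA from a 50% saturated solution. After 10 min of compound exposure at ambient temperature, reduced 535 nm fluorescence indicates probe displacement.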
# The depositor's hits bear a star; ? = inconclusive; nt = no result given; [ ] = another dose, or the depositor's remark. Unless noted, calls follow the shape of the dose curve; as a rule, active = well fitted curve in the direction sought with a large enough effect; inconclusive = small, poorly fitted or top-dose-only effect, or another doubt; inactive = no such curve, though single readings can be large; an effect the other way counts as inactive or inconclusive.
SMILES,ClpP mod,TrxR1 substrate,TrxR1 inh,miR-21 FLuc,Apoferritin bind
O=C1COc2ccc(C(=O)COC(=O)/C=C/c3ccco3)cc2N1,0.8%,-0.7%,50.1µM*,nt,nt
CC(C)COc1ccc(C(=O)OC2CC(C)(C)OCC2CN(C)C)cc1 (stereo not drawn),20µM*,3.1%[57.1 µM],-2.2%[57.1 µM],-4.6%,-10.6%
CN(C)c1ccc(/C=C\C=C/c2ccnc3ccccc23)cc1,-0.6%,1.3%,-6.4%,nt,nt
Cc1ccc(-c2noc(CCC(=O)Nc3ccc(F)cc3Cl)n2)cc1,-0.7%,7.9%,22.9%,-1.2%,-9.1%
Cc1ccc(C)c(NC(=O)C2CCN(S(=O)(=O)c3c(C)noc3/C=C/c3cccs3)CC2)c1,-13.2%,-6.9%,2.6%,4.8%,-1.4%
Clc1ccc(CO/N=C/c2c(-c3ccccc3)nc3n2CCS3)c(Cl)c1,35.5µM*,20.3%,-0.5%,-3.5%,3.8%
O=C(Cc1ccc(F)cc1)NCCc1csc2nc(-c3ccc(Cl)cc3)nn12,-5.0%,-1.8%[57.1 µM],-3.7%[57.1 µM],8.9%,0.4%
Cc1cc(-c2ccccc2)nc(Oc2cccc(C(F)(F)F)c2)c1S(C)(=O)=O,35.5µM*,13.7%[57.1 µM],32.3%[57.1 µM],-0.4%,?
Cc1nc([N+](=O)[O-])c(Sc2nc3ccccc3n2C)n1Cc1ccccc1,1.3%,-2.7%,6.31µM*,?,-0.4%
COC(=O)c1ccc(NC(=O)C2CC2)o1,14.1µM*,4.9%[57.1 µM],2.4%[57.1 µM],-1.1%,-4.3%

# Full records, looked up by structure. Order of screens: ClpP mod, TrxR1 substrate, TrxR1 inh, miR-21 FLuc, Apoferritin bind
# Listed for Cc1cc(-c2ccccc2)nc(Oc2cccc(C(F)(F)F)c2)c1S(C)(=O)=O : 35.5µM*, 13.7%[57.1 µM], 32.3%[57.1 µM], -0.4%, ?
# Listed for COC(=O)c1ccc(NC(=O)C2CC2)o1 : 14.1µM*, 4.9%[57.1 µM], 2.4%[57.1 µM], -1.1%, -4.3%

# Additional structures
SMILES,ClpP mod,TrxR1 substrate,TrxR1 inh,miR-21 FLuc,Apoferritin bind
O=C(NCc1ccccc1Br)c1ccc(-n2cnc3cccnc32)cc1,0.3%,-11.5%,-16.2%,2.4%,38.8%
CCC(=O)N(Cc1ccc(C)cc1)Cc1cc2cc3c(cc2[nH]c1=O)OCO3,31.6µM*,5.0%,7.7%,2.1%,-4.1%
CCC(=O)N(CCc1ccccc1)Cc1cc2cc3c(cc2[nH]c1=O)OCO3,14.1µM*,30.9%,6.5%,4.1%,-10.7%
Cc1ccc(NC(=O)N(Cc2ccc3c(c2)OCO3)Cc2cc3cc4c(cc3[nH]c2=O)OCCO4)cc1,?,7.9%[57.1 µM],28.7%[57.1 µM],-11.6%,-13.9%
Cc1ccc2[nH]c(=O)c(CN(CCc3ccccc3)C(=O)N3CCOCC3)cc2c1,14.1µM*,-3.1%,-14.5%,-1.5%,-7.2%
COc1ccc(CCN(Cc2cc3cc(C)ccc3[nH]c2=O)C(=O)N2CCCC2)cc1OC,-8.5%,16.6%[57.1 µM],10.1%[57.1 µM],-10.0%,?
COc1cc2nc(N3CCOCC3)nc(NC3CCN(C)CC3)c2cc1OC,4.0%,190.3%,-1.8%,nt,nt
COC(=O)[C@]1(Cc2ccccc2)N[C@H](c2ccc(-c3cc(C(C)=O)cs3)cc2)[C@@H]2C(=O)N(C)C(=O)[C@@H]21,17.8µM*,7.6%[57.1 µM],-4.3%[57.1 µM],nt,nt
CCOC(=O)c1[nH]c2cc3c(cc2c1NC(=O)CN1CCC(C)CC1)OCO3,11.2µM*,77.1%,-21.6%,1.1%,?
CCOC(=O)c1[nH]c2cc3c(cc2c1NC(=O)CN1CCc2ccccc2C1)OCO3,3.16µM*,87.2%,20.8%[57.1 µM],-3.3%,-5.5%
CCOC(=O)c1[nH]c2cc3c(cc2c1NC(=O)CN1CCCC1)OCO3,0.6%,31.4%[57.1 µM],8.8%[57.1 µM],0.3%,-3.8%
CCOC(=O)N1CCN(CC(=O)Nc2c(C(=O)OC)[nH]c3ccccc23)CC1,-21.4%,13.1%,3.8%,-2.2%,-10.4%
COc1cccc(NC(=O)C2CCN(S(=O)(=O)c3c(C)noc3/C=C/c3cccs3)CC2)c1,0.4%,-4.1%,22.0%,24.9%,-1.5%
Cc1ccc(-c2nnc(-c3ccccc3)c(-c3ccccc3)n2)cc1,0.6%,1.9%,12.2%,-1.0%,-7.0%
Cc1cc(-c2nnc(-c3ccccc3)c(-c3ccccc3)n2)c(C)o1,-1.1%,-0.7%,31.6µM*,-5.1%,?
CSc1ccc(CNC(=O)c2ccccc2NC(=O)c2nsc3ccccc23)cc1,-13.4%,12.5%[57.1 µM],21.9%[57.1 µM],-10.0%,11.3%
O=C(NCc1cccc(F)c1)c1ccccc1NC(=O)c1nsc2ccccc12,28.2µM*,2.8%[57.1 µM],21.6%[57.1 µM],5.6%,-18.3%
CCOC(=O)c1nn(-c2ccc(F)cc2)c2nc(-c3ccccc3)c(C#N)c(=O)n12,?,62.0%,55.6%,-5.1%,-15.0%
CCOC(=O)c1nn(-c2ccc(Cl)cc2)c2nc(CC)c(C#N)c(=O)n12,895.7%,22.8%,-4.7%,0.3%,-9.4%

# 4 of the entries above in order of their number in TrxR1 substrate, rising:
mol,TrxR1 substrate
COc1cccc(NC(=O)C2CCN(S(=O)(=O)c3c(C)noc3/C=C/c3cccs3)CC2)c1,-4.1%
Cc1cc(-c2nnc(-c3ccccc3)c(-c3ccccc3)n2)c(C)o1,-0.7%
Cc1ccc(-c2nnc(-c3ccccc3)c(-c3ccccc3)n2)cc1,1.9%
CCOC(=O)c1nn(-c2ccc(F)cc2)c2nc(-c3ccccc3)c(C#N)c(=O)n12,62.0%
